Results published in US20240166643A1, “IMIDAZO[1,2-A]PYRIDINE COMPOUNDS AND THEIR USE IN THERAPY” (Imperial College Innovations Limited, priority 2020, published 2024).
Read-outs that look alike come from different tables or passages of the source.

Chains of the proteins cited; added tags and fusions are not shown. Lines headed by an entry give the natural chain unless they say otherwise; changes in a name come on top. Residues count along the entry.
UniProt A5K1A2, 1-410: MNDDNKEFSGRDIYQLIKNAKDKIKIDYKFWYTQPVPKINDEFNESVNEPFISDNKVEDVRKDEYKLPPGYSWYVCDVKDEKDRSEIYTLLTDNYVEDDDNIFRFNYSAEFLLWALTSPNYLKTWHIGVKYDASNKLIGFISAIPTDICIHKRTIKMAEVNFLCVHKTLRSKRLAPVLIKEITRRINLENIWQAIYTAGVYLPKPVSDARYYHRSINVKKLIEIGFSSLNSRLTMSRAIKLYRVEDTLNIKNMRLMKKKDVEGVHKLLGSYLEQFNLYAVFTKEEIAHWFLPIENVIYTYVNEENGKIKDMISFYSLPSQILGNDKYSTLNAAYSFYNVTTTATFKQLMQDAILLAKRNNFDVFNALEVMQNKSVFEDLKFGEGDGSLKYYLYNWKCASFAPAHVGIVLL
UniProt P30419: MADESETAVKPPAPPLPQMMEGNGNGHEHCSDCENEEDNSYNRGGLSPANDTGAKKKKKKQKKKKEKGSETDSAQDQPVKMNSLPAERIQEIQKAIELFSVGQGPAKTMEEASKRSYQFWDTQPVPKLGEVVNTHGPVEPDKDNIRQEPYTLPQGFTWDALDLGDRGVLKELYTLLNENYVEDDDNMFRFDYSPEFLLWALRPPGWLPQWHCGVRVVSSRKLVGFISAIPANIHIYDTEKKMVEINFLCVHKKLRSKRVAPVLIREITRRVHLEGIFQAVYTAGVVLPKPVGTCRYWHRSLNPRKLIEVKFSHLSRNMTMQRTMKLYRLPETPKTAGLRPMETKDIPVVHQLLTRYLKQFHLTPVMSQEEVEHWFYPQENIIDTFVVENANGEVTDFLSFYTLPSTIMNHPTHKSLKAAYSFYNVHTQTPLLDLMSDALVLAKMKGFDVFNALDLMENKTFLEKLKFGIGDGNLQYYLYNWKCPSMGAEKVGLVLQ

Tests used:
[1] = system: Plasmodium falciparum 3D7; experiment: SYBR Green assay, Plasmodium falciparum strain 3D7; format: cell-based; details: P. falciparum strain 3D7, 96 h incubation, read-out: Pf EC50 strain 3D7
Source text: Assay (g): SYBR Green Assay […] Values were expressed in relative fluorescence units.

[2] = biological target: Plasmodium vivax (Pv) NMT (Plasmodium vivax (strain Salvador I), UniProt A5K1A2); experiment: biochemical
BL-41 cells = experiment: Metabolic activity assay (MTS assay) in BL-41 cell line; format: cell-based; details: Homo sapiens, 72 h
Procedure: Cell Preparation: BL-41 cells (obtained from Cell Services at the Crick Institute; cell type: […] Cell suspensions were prepared by adjusting the cell density to the appropriate concentration (as stated in the Table 7 below) and 50 μL of the cell suspension was transferred to wells B-G in columns 2-11 of a 96-well plate. [table] Assay Procedure: […] After 72 h, 20 μL MTS reagent (G3580, prepared as follows: 200 μL of phenazine methosulfate (PMS) solution was added to 4 ml 3-(4,5-dimethylthiazol-2-yl)-5-(3-carboxymethoxyphenyl)-2-(4-sulfophenyl)-2H-tetrazolium inner salt (MTS) solution (16 mg in 10 ml PBS) and mix thoroughly) was added to each well of the 96-well plate. The plate was incubated at 37° C. for 1 to 4 h and the absorbance per well was measured at 490 nm with an EnVision plate reader. The average absorbance value of the negative control (Puromycin-treated cells) was subtracted from each value and the metabolic activity was calculated as a percentage relative to the positive control (DMSO-treated cells). EC50 values were calculated using GraphPad.

in vitro = details: male, Sprague-Dawley, rat, hepatocytes, pH 7.4
Human NMT1 (HsNMT1) = Human NMT1 (HsNMT1) (Homo sapiens, UniProt P30419)
[3] = Rat clearance and bioavailability (iv and oral dosing); format: in vivo; details: male, Sprague-Dawley, cassette dosing of 4 compounds
Procedure: Half-life times and bioavailability was determined.

[4] = Plasmodium falciparum, 3D7, 96 h

Structure (SMILES): CN1CCC(N(C)c2ncc(Cl)c(N3CC(C(=O)NC(C)(C)c4cnc5ccccn45)C3)n2)C1 (stereo not drawn) [Example 59]
- EC50 [1, 4]: 90 nM
- IC50 [2]: 4.2 nM

Structure (SMILES): CN1CCCN(c2ncc(F)c(N3CC(C(=O)NC(C)(C)c4cnc5ccccn45)C3)n2)CC1 [Example 56]
- EC50 (BL-41 cells): 800 nM
- EC50 [1, 4]: 25 nM
- IC50 [2]: 3.2 nM
- half-life at 1 µM (in vitro): > 3 h

Structure (SMILES): CN1CCN(c2ncc(Cl)c(N3CC[C@H](C(=O)NC(C)(C)c4cnc5ccccn45)C3)n2)CC1 [Example 76]
- IC50 [2]: 5.2 nM

Structure (SMILES): C[C@@H]1CN(c2ncc(Cl)c(N3CC[C@H](C(=O)NC(C)(C)c4cnc5ccccn45)C3)n2)CCN1C [Example 100, (3S)-1-{5-chloro-2-[(3R)-3,4-dimethylpiperazin-1-yl]pyrimidin-4-yl}-N-(2-{imidazo[1,2-a]pyridin-3-yl}propan-2-yl)pyrrolidine-3-carboxamide]
- IC50 (Human NMT1 (HsNMT1)): 19 nM
- EC50 [1, 4]: 40 nM
- IC50 [2]: 5.4 nM
- half-life at 1 µM (in vitro): 0.547 h

Structure (SMILES): CN1CCN(c2ncc(Cl)c(N3CCC(C(=O)NC(C)(C)c4cnc5ccccn45)C3)n2)CC1 (stereo not drawn) [Example 76]
- half-life ([3]; in vivo, iv 1 mg/kg, read-out: Rat iv t1/2 (converted)): 3 h
- bioavailability ([3]; plasma, oral 5 mg/kg): 70%
- IC50 (Human NMT1 (HsNMT1)): 56 nM
- EC50 [1]: 410 nM

Structure (SMILES): COc1cnc(N2C[C@@H](C)N[C@@H](C)C2)nc1N1CC(C(=O)NC(C)(C)c2cnc3ccccn23)C1 [Example 42]
- EC50 [1, 4]: 240 nM
- IC50 [2]: 19 nM
- half-life at 1 µM (in vitro): > 3 h

Structure (SMILES): COc1cnc(N2CC(C)N[C@@H](C)C2)nc1N1CC(C(=O)NC(C)(C)c2cnc3ccccn23)C1 (stereo partly drawn) [Example 45]
- EC50 [1, 4]: 150 nM
- IC50 [2]: 32 nM

Structure (SMILES): CN1CCN(c2ncc(Cl)c(N3CC[C@@H](C(=O)NC(C)(C)c4cnc5ccccn45)C3)n2)CC1 [Example 75]
- IC50 (Human NMT1 (HsNMT1)): 250 nM
- EC50 [1]: > 1000 nM
- IC50 [2]: 35 nM

Structure (SMILES): C[C@@H]1CN(c2ncc(Cl)c(N3CC[C@@H](C(=O)NC(C)(C)c4cnc5ccccn45)C3)n2)CCN1C [Example 99, (3R)-1-{5-chloro-2-[(3R)-3,4-dimethylpiperazin-1-yl]pyrimidin-4-yl}-N-(2-{imidazo[1,2-a]pyridin-3-yl}propan-2-yl)pyrrolidine-3-carboxamide]
- IC50 (Human NMT1 (HsNMT1)): 28 nM
- EC50 [1, 4]: 140 nM
- IC50 [2]: 15 nM
- half-life at 1 µM (in vitro): 0.497 h
